The values that follow come from patent US20090172831A1, “Methods for the production of plants resistant to HPPD herbicides” (Syngenta Limited, priority 2000, published 2009).

Protein sequences, listed by entry. Tags and fused reporters are not part of them.
UniProt A0A3B6NLC6, entry or part of it: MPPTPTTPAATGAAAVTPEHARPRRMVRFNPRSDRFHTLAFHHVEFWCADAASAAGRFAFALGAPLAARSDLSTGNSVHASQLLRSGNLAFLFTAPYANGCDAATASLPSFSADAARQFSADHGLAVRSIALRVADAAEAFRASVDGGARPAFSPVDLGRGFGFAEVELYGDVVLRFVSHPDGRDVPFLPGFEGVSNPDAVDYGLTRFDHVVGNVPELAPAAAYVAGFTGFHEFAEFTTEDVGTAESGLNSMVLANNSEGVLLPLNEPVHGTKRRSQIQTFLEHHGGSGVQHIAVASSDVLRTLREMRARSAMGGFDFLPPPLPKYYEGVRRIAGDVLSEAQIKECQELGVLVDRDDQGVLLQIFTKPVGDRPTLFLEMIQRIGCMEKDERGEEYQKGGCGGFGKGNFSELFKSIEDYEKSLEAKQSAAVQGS

Several values for one entry are separate records, joined by “and”; a condition that tells them apart may be missing. Equal entries are not always repeated. Where two headings read alike, the source gives them in different places.

One assay concerns the target T1, Arabidopsis HPPD (Arabidopsis thaliana, UniProt P93836).
T1 construct: made in house; host or cells: E. coli BL21 (DE3) codon+ RP
T1 sequence (P93836 1-445): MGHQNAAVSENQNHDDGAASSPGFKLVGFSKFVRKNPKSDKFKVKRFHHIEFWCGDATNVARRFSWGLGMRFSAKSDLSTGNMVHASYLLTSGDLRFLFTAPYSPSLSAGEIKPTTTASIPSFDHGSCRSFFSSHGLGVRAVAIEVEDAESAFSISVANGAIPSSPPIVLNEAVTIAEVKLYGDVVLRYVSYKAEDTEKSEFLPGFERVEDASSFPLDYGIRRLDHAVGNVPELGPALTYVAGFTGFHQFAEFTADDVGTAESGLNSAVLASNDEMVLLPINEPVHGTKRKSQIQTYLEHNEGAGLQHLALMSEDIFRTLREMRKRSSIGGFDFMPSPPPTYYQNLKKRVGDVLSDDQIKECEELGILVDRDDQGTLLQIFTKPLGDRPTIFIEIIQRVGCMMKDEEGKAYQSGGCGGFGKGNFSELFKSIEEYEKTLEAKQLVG
The assay can be described thus: Dissociation of enzyme/inhibitor complexes by exchange with 14C-labelled inhibitor (koff; Kd = koff/kon). The class given is binding. Here is the method:
It will be appreciated that many suitable methods known in the art for determining such low koff values are suitable for working the current invention. These include measuring rates of exchange of radio or otherwise labelled inhibitors either with or away from the enzyme inhibitor complex. For example enzyme inhibitor complexes can readily be prepared by incubating HPPD preparations with labelled or unlabelled inhibitor and then, after suitable periods, optionally rapidly separating the thus formed enzyme inhibitor complex from excess inhibitor by any suitable method such as ultrafiltration, binding to filters or exchange down a gel filtration column. Exchange reactions with the, thus prepared enzyme inhibitor complex is then initiated by addition of, as appropriate, excess labelled or unlabelled inhibitor. […] Many methods such as radiometric, fluorimetric, NMR, fluorescence depolarisation, EPR, Mossbauer, UV/VIS spectrophotometry etc. or phonon resonance can, in principle, be used to monitor the enzyme/ligand exchange reactions and, particularly in this case where the enzyme contains an iron atom at the ligand binding site. Optionally, the monitoring method may be continuous (as, for example, with scintillation proximity/bead-based methods) or, discontinuous, based upon collection of data at various timepoints wherein samples are removed and the bound and unbound label components rapidly separated and quantitated.
(§1) Values of koff can suitably be calculated by computer fitting based upon is numerical integration of the exchange data along with information on the active-site concentration of HPPD and upon kon values obtained as described below. […] In any event, koff values are always here calculated from the rate of the major slow exchange reaction.
^14C mesotrione is of specific activity 1.12 GBq/mmol. […] Following this initial binding reaction, exchange reactions are initiated by addition of cold mesotrione to a final concentration of 60 μM and 200 μl aliquots removed at various times to rapid chromatography down a NAP5 gel filtration column equilibrated in 50 mM BTP at pH 7 containing 0.1 M KCl, separation into fractions containing protein-bound or free radiolabel and liquid scintillation counting.

Assay [1] addresses T2, Wheat HPPD (Triticum aestivum, UniProt A0A3B6NLC6). The description is as above. The class given is binding.
Description: Herbicidal inhibitors of HPPD are found here to have generally low values of koff (in the range less than 0.0003 s^−1, often less than 0.000001 s^−1). It will be appreciated that many suitable methods known in the art for determining such low koff values are suitable for working the current invention. These include measuring rates of exchange of radio or otherwise labelled inhibitors either with or away from the enzyme inhibitor complex. For example enzyme inhibitor complexes can readily be prepared by incubating HPPD preparations with labelled or unlabelled inhibitor and then, after suitable periods, optionally rapidly separating the thus formed enzyme inhibitor complex from excess inhibitor by any suitable method such as ultrafiltration, binding to filters or exchange down a gel filtration column. Exchange reactions with the, thus prepared enzyme inhibitor complex is then initiated by addition of, as appropriate, excess labelled or unlabelled inhibitor. HPPD preparations suitable for use in the methods of the current invention are relatively unpurified, buffer-exchanged, supernatant fractions of spun crude lysates of E. coli strains engineered to express the HPPD enzyme of interest at a level of, typically, about 0.25-10% of the total soluble protein. Many methods such as radiometric, fluorimetric, NMR, fluorescence depolarisation, EPR, Mossbauer, UV/VIS spectrophotometry etc. or phonon resonance can, in principle, be used to monitor the enzyme/ligand exchange reactions and, particularly in this case where the enzyme contains an iron atom at the ligand binding site. Optionally, the monitoring method may be continuous (as, for example, with scintillation proximity/bead-based methods) or, discontinuous, based upon collection of data at various timepoints wherein samples are removed and the bound and unbound label components rapidly separated and quantitated.
as §1, with “reaction. It will be appreciated that within the scope of the current invention many methods of making the desired kinetic comparisons are possible without explicit or rigorous determination of off rates but, based upon the same underlying principle, will achieve the same selection result.” for “reaction.”
The dissociation rates (off rates) of inhibitors selected from Formula 1 and/or 2 and/or 3 and/or 4 from the complexes that they form with test and control HPPD enzymes are suitably measured in a number of ways. […]

Assay [2] has as its target T2, Wheat HPPD. Briefly: kon from HPLC enzyme assay (progressive inhibition / timed pre-reaction). It is filed as biochemical.

The koff is a measure of how fast the partners let go of each other. As a reminder, the kon is the second-order rate constant of association. For the compound `CS(=O)(=O)c1ccc(C(=O)C2C(=O)CCCC2=O)c([N+](=O)[O-])c1` [Structure I, 2-(Nitro-4-methanesulphonylbenzoyl)-cyclohexane-1,3-dione], the dissociation rate constant (koff) at Arabidopsis HPPD (pH 7, 25 C, pH 7.0, 25% glycerol, exchange of 14C mesotrione with cold mesotrione, read-out: koff) amounted to 2e-06 s⁻¹; at Arabidopsis HPPD (without 25% v/v glycerol, exchange with 14C mesotrione, read-out: koff), 3.3e-06 s⁻¹; on Arabidopsis HPPD (− glycerol, read-out: koff) it was 3.3e-06 s⁻¹; on Wheat HPPD [1] (pH 7, 25 C, pH 7.0, 25% glycerol, exchange of 14C mesotrione with cold mesotrione) it was 0.00038 s⁻¹; on Wheat HPPD [1] (− glycerol), 0.001 s⁻¹. Besides, the “ratio koff1/koff3, structure I to structure IV” value at Wheat HPPD [1] is 22.9 and 16.13. For the same compound, the kon on Wheat HPPD [2] (in the presence of glycerol) worked out at 70000 M⁻¹ s⁻¹.

As for `Cc1cc(C#N)ccc1C(=O)C1C(=O)C(C)(C)C(=O)C(C)(C)C1=O` [Structure VI, 2-[2-methyl-4-cyanobenzoyl]-4,4,6,6-tetramethylcyclohexane-1,3,5-trione], on Arabidopsis HPPD, the “ratio koff4/koff1, structure VI to structure I” value is on record as 0.6. Further, the koff was found to be 2e-06 s⁻¹ at Arabidopsis HPPD (− glycerol) and 2.5e-05 s⁻¹ on Wheat HPPD [1] (− glycerol). Besides, the association rate constant (kon) at Wheat HPPD [2] (timed pre-reaction at 0.33 and 1.33 μM inhibitor, 25 C) was found to be 70000 M⁻¹ s⁻¹.
